Where two headings read alike, the source gives them in different places.
Key:
kidney = conditions: ^14C-methylated peptide, intravenous, 30-100 nmol per mouse
[1] = system: kidney cortex / proximal tubules; conditions: 10 nmol lysozyme-dye conjugate, 20 hours (FIG. 7C, 7D); 'has been shown to accumulate'; cited from earlier work

Row | Substance | kidney uptake relative to control peptide-AF647 (kidneys; 10 nmol SEQ ID NO: 4-AF647 or 10 nmol control peptide-AF647 i.v., 4 hours, three mice per cohort, p-value of 0.015 (Student's unpaired t-test)) | nature of renal peptide uptake (kidneys; self-competition, unlabeled versus AF647-labeled SEQ ID NO: 4, 4 hours, i.v.) | accumulation of ^14C signal in kidney (kidney; 3 hours after administration (FIG. 3A)) | accumulation of ^14C signal in kidney (kidney; 24 hours after administration (FIG. 3B)) | accumulation in the proximal tubules (positive control) [1]
1 | GSSCEPGRTFRDRCNTCRCGADGRSAACTLRACPNQ [SEQ ID NO: 4] | significantly higher extent | specific and saturable | accumulation of ^14C signal | accumulation of ^14C signal | –
2 | lysozyme | – | – | – | – | accumulate in the proximal tubules
